Patent US5919768A, “Di- and trivalent small molecule selectin inhibitors” (Texas Biotechnology Corporation, priority 1998, dated 1999)

Assays:
L-selectin = target: T1, L-selectin (Homo sapiens, UniProt P14151); assay: Selectin binding assay: inhibition of binding of L-selectin to sialyl-Lewis^x (cell-protein; glycolipid-protein assay also mentioned); conditions: in vitro selectin assay
T1 construct: amino terminal lectin, EGF, and complement regulatory-like repeats (CR) 1 and 2; made in house; host or cells: SF21 insect cells, baculovirus (BakPAK)
T1 sequence (P14151 39-318): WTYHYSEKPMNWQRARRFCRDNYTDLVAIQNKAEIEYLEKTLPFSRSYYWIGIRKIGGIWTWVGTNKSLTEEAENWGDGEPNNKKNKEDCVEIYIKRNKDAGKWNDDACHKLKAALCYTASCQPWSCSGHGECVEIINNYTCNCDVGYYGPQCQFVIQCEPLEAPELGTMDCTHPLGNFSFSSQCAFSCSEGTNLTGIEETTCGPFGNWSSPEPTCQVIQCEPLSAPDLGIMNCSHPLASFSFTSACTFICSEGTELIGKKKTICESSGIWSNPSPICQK
Experimental: (§1) Compounds were assayed for their ability to inhibit the binding of E-, P-, and/or L-selectin to sialyl-Lewis^x.
(§2) The E-selectin binding assays involved assessing the ability of HL60 cells that express sialyl-Lewis^x and Lewis^x to purified E-selectin, P-selectin and L-selectin recombinant proteins (cell-protein assay). A similar binding assay utilizing purified glycolipids and purified L-selectin recombinant protein (glycolipid-protein) was used to assess L-selectin binding.
(§3) All selectin fusion cassettes were generated by PCR from the E-selectin cDNA purchased from R&D Systems (Minneapolis, Minn.), and from the P-selectin and L-selectin cDNAs that were PCR cloned from total RNA extracted from human placenta. The mouse IgG cDNA was cloned from PCR amplified cDNA generated from RNA extracted from the hybridoma cell line 402C10. All fusion cassettes were expressed from baculovirus vectors using the BakPAK method and SF21 cells purchased from Clonetech.
(§4) Recombinant fusion proteins were purified from baculovirus infected culture supernatants by immunoprecipitation using Dynal™ goat anti-mouse IgG coated magnetic beads. […]
(§5) HL60 cells (10^7 cells) were fluorescently labeled with calcein AMC-3099 (Molecular Probes) in RPMI 1640 with 10% fetal calf serum (FCS). […] Binding was quantitated fluorimetrically using a Millipore Cytofluor 2350 fluorimeter. […]

E-selectin = target: T2, E-selectin (Homo sapiens, UniProt P16581); assay: Cell-protein assay: inhibition of binding of HL60 cells (expressing sialyl-Lewis^x) to E-selectin; conditions: HL60 cell binding to selectin fusion protein on magnetic beads
T2 construct: amino terminal lectin, EGF, and complement regulatory-like repeats (CR) 1 and 2; made in house; host or cells: SF21 insect cells, baculovirus (BakPAK)
T2 sequence (P16581 22-301): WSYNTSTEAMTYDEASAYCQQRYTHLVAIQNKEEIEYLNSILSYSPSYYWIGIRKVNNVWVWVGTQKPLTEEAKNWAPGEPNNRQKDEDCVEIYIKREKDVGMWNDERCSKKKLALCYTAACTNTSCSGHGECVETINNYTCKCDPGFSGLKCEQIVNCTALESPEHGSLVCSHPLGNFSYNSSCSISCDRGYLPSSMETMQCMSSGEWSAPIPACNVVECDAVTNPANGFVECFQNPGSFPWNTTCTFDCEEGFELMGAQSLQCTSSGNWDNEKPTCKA
Experimental: as §1, §2, §3, §4, §5

P-selectin = target: T3, P-selectin (Homo sapiens, UniProt P16109); assay: Cell-protein assay: inhibition of binding of HL60 cells (expressing sialyl-Lewis^x) to P-selectin; conditions: HL60 cell binding to selectin fusion protein on magnetic beads
T3 construct: amino terminal lectin, EGF, and complement regulatory-like repeats (CR) 1 and 2; made in house; host or cells: SF21 insect cells, baculovirus (BakPAK)
T3 sequence (P16109 42-321): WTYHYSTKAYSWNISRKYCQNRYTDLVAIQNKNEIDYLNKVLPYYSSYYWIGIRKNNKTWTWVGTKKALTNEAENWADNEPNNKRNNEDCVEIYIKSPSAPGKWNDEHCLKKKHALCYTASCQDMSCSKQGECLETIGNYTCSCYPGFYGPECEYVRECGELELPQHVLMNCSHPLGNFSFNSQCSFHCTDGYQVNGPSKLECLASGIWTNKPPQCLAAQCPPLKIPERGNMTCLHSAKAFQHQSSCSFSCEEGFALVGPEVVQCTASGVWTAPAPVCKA
Experimental: as §1, §2, §3, §4, §5

| IC50 (L-selectin) [µM] | IC50 (E-selectin) [µM] | IC50 (P-selectin) [µM] | Compound |
| --- | --- | --- | --- |
| 1000 |  |  | O=C(O)Cc1cccc(-c2cc(CCCCCCCCCc3ccc(O[C@H]4O[C@H](CO)[C@@H](O)[C@H](O)[C@@H]4O)c(-c4cccc(CC(=O)O)c4)c3)ccc2O[C@H]2O[C@H](CO)[C@@H](O)[C@H](O)[C@@H]2O)c1 [Compound A-9] |
|  | 5000 |  | O=C(O)Cc1cccc(-c2cc(CCCCc3ccc(O[C@H]4O[C@H](CO)[C@@H](O)[C@H](O)[C@@H]4O)c(-c4cccc(CC(=O)O)c4)c3)ccc2O[C@H]2O[C@H](CO)[C@@H](O)[C@H](O)[C@@H]2O)c1 [Compound A-4, 1,4-Bis-[3-(3-carboxymethylphenyl)-4-(2-α-D-mannopyranosyloxy)phenyl]butane] |
| 5000 |  |  | O=C(O)Cc1cccc(-c2cc(CCCSCCCSCCCc3ccc(O[C@H]4O[C@H](CO)[C@@H](O)[C@H](O)[C@@H]4O)c(-c4cccc(CC(=O)O)c4)c3)ccc2O[C@H]2O[C@H](CO)[C@@H](O)[C@H](O)[C@@H]2O)c1 [D] |
|  | 500 | 70 | O=C(O)Cc1cccc(-c2cc(CCCCCCc3ccc(O[C@H]4O[C@H](CO)[C@@H](O)[C@H](O)[C@@H]4O)c(-c4cccc(CC(=O)O)c4)c3)ccc2O[C@H]2O[C@H](CO)[C@@H](O)[C@H](O)[C@@H]2O)c1 [Compound A-6, 1,6-Bis-[3-(3-carboxymethylphenyl)-4-(2-α-D-mannopyranosyloxy)phenyl]hexane] |
